Antibody variant affinities, Ab-95 light chain, assay 2

Target peptide (SARS-CoV-2 spike, HR2 region): PDVDLGDISGINAS

The variants keep the heavy chain, the linker and the frameworks of Ab-95 (scFv order VH, a 15-residue (Gly4Ser)3 linker, VL).
VH: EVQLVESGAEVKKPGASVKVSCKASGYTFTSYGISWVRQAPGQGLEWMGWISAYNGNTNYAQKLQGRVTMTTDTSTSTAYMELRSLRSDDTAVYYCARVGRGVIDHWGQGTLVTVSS
VL: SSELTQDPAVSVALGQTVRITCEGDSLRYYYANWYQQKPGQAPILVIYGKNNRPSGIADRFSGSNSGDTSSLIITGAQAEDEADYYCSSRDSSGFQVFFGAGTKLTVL

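The starting antibody came from a phage panning campaign against this peptide. AAYL52 was designed without a model: most single CDR substitutions and a random sample of double and triple ones. Affinity was read by AlphaSeq, a pooled yeast mating assay with surface-displayed partners. Pairs that bind mate more often; barcode pairs of the diploids are counted by sequencing. Scores were corrected for input abundance and mapped to Kd with protein pairs of known affinity run in the same pool. Mating was done three times.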

Changes read parent residue, position, new residue, counted from the first residue of the VL shown. Every variant below is changed at R90 of the VL (sequential numbering). Each Kd is an estimate from the mating assay, the geometric mean of the replicates in which the pair was seen; lower is stronger. "no signal" means that the variant was in the library but no mating with the target was seen in any replicate; the authors take this as a sign of poor binding, and no number exists. Entries are sorted by rising average, undetected variants last. In this assay the parent's reference entry averaged 200 nM; its copy inside this library read 180 nM. Background: pairings of library AAYL52 with three empty control strains gave a value in 28% of cases (median 8.2 µM, 5th percentile 800 nM). Values in that range, when seen in few replicates, are hard to tell from nonspecific mating.

changes	apparent Kd	seen in
Y30A S88N R90K	76 nM	3/3
R90Q Q96P F98S	86 nM	3/3
E23R R90K F98Y	120 nM	3/3
Y29M N52E R90M	150 nM	3/3
N51S R90T G94C	180 nM	2/3
S89L R90M S92P	290 nM	3/3
S55E R90W Q96C	380 nM	3/3
S89K R90G F95I	570 nM	3/3
R90Y D91V F98T	600 nM	3/3
N52F R53P R90S	720 nM	1/3
R90Q S92D Q96W	770 nM	3/3
R28A R90N D91H	890 nM	3/3
N51G S88C R90T	1.1 µM	3/3
L27G S89P R90F	1.1 µM	3/3
G24V G49Q R90T	1.5 µM	1/3
Y29D P54F R90A	1.5 µM	3/3
E23S K50C R90P	1.7 µM	3/3
E23F P54N R90C	2.1 µM	2/3
G24K R90E S93R	2.5 µM	2/3
K50Q R90H S92A	2.5 µM	2/3
N33T R90S D91H	3.0 µM	1/3
S88W R90T S92M	3.6 µM	3/3
G49Y R90T V97C	3.7 µM	1/3
Y29K R90P D91M	3.9 µM	3/3
S26L N33S R90G	4.6 µM	2/3
P54I R90W S92D	5.2 µM	2/3
R90H	5.4 µM	2/3
K50M N52C R90L	5.5 µM	1/3
E23W D25E R90T	5.5 µM	2/3
D25W S88D R90G	5.5 µM	3/3
G24M S88L R90S	5.8 µM	3/3
G49M S55H R90G	5.9 µM	3/3
R90N D91A	7.0 µM	3/3
S55R R90V D91N	7.9 µM	3/3
G49I S88N R90G	8.2 µM	2/3
S26P R90K S93H	9.8 µM	2/3
A32N S88T R90S	9.8 µM	2/3
D25A S55E R90P	10 µM	3/3
N51C R90A G94F	12 µM	1/3
Y31G R90H S92P	12 µM	2/3
D25T R90S G94E	14 µM	3/3
A32T N52I R90Q	14 µM	2/3
S26E S89M R90I	18 µM	1/3
N33Q N52T R90S	21 µM	2/3
D25I A32Q R90S	23 µM	1/3
R90E	26 µM	2/3
S26K K50D R90A	33 µM	1/3
E23Y R90Y	43 µM	2/3
S26P R53H R90A	49 µM	2/3
G24R N52C R90H	57 µM	1/3
S55P R90T D91Q	60 µM	2/3
Y29F G49R R90P	120 µM	1/3
N52W R90Y	140 µM	2/3
P54I R90H Q96S	270 µM	1/3
Y29P R90H S93M	300 µM	1/3
R90F G94Y Q96G	350 µM	1/3
G49T R90N S93E	no signal	0/3
K50Y R53Y R90F	no signal	0/3
S89T R90T V97R	no signal	0/3
D25L R90Y G94H	no signal	0/3
L27K R90I F98T	no signal	0/3
G24F G49C R90A	no signal	0/3
R28V Y31I R90E	no signal	0/3
R90P D91M S92A	no signal	0/3
A32P G49C R90D	no signal	0/3
G49I P54Q R90Y	no signal	0/3
R53D S55L R90I	no signal	0/3
R28A R53F R90I	no signal	0/3
R53C R90E	no signal	0/3

The first 5 variants above that were never detected:

{"changes": "G49T R90N S93E", "apparent Kd": "no signal", "seen in": "0/3"}
{"changes": "K50Y R53Y R90F", "apparent Kd": "no signal", "seen in": "0/3"}
{"changes": "S89T R90T V97R", "apparent Kd": "no signal", "seen in": "0/3"}
{"changes": "D25L R90Y G94H", "apparent Kd": "no signal", "seen in": "0/3"}
{"changes": "L27K R90I F98T", "apparent Kd": "no signal", "seen in": "0/3"}

The measurements come from Engelhart et al. 2022 (doi:10.1038/s41597-022-01779-4) through the FLAb antibody collection.